{"source": "patent US20040014790A1", "about": "“Tartrate salt of thiazolidinedione derivative” (priority 2000, published 2004)", "details": "water; product of Example 1", "data": [{"smiles": "CN(CCOc1ccc(CC2SC(=O)NC2=O)cc1)c1ccccn1.O=C(O)C(O)C(O)C(=O)O", "note": "(racemic) [DL-Tartrate, 5-[4-[2-(N-methyl-N-(2-pyridyl)amino)ethoxy]benzyl]thiazolidine-2,4-dione DL tartrate]", "values": [{"measurement": "Solubility", "result": 1, "unit": "mg/mL"}]}]}
